Test [1] is described as follows: ATG_M_61_CIS: Attagene CIS-FACTORIAL HepG2 Assay for M61 Transcription Factor (Internal Marker) (AID 2282937). Particulars: HepG2 Attagene CIS-FACTORIAL M61 internal marker reporter; actives raise or lower the signal. The procedure, abridged: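 Using transiently transfected HepG2 liver cells, reporter transcript levels were assessed 24 h post-dosing by RT-PCR and capillary electrophoresis. Changes in either direction were fitted relative to DMSO controls.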

Protein sequences, listed by entry. Tags and fused reporters are not part of them. Lines headed by an entry give the natural chain unless they say otherwise; changes in a name come on top.
UniProt Q96RI1: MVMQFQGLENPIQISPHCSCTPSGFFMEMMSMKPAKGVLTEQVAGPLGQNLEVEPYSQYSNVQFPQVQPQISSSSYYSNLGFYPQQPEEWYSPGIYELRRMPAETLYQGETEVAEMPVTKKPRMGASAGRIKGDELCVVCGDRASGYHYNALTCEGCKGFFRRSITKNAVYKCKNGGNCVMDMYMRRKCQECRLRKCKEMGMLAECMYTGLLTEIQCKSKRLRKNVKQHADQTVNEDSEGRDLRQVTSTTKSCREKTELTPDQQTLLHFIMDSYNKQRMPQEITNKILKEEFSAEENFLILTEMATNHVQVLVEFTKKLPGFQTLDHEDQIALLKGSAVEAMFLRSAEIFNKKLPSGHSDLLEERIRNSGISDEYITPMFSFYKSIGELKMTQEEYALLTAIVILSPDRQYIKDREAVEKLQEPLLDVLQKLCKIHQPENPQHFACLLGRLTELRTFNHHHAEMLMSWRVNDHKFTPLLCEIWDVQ

The nature of test [2]: ATG_EGR_CIS: Attagene CIS-FACTORIAL HepG2 Assay for human Early Growth Response 1 (EGR1) (AID 2282938). Conditions: HepG2 Attagene CIS-FACTORIAL EGR reporter mRNA; actives raise or lower the signal. The essentials:
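Fluorescent capillary-electrophoresis signal of reporter cDNA fragments serves as read-out. HepG2 cells bear transiently transfected cis-promoter reporter units and are exposed 24 h; gain- or loss-of-signal is fitted against DMSO.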

Test [3] in a line: ATG_M_19_CIS: Attagene CIS-FACTORIAL HepG2 Assay for M19 Transcription Factor (Internal Marker) (AID 2282939). Conditions: HepG2 Attagene CIS-FACTORIAL M19 internal marker reporter; actives raise or lower the signal. The procedure, abridged:
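Following a 24 h exposure, RNA from transfected HepG2 cells was reverse-transcribed, PCR-amplified with reporter-specific primers, end-labelled with 6-FAM and HpaI-digested before capillary separation. Values represent gain or loss versus DMSO.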

The nature of test [4]: ATG_Ets_CIS: Attagene CIS-FACTORIAL HepG2 Assay for human Erythroblast Transformation Specific (ETS) (AID 2282941). Particulars: HepG2 ETS cis-reporter transcription, actives raise or lower the signal. The procedure, abridged: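 Human HepG2 hepatoma cells were transiently transfected with promoter-driven reporter constructs and treated for 24 hours. Reporter transcripts were quantified by RT-PCR with fluorescent primer extension; bidirectional curve fitting used DMSO as reference.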

Test [5] can be described thus: ATG_FoxO_CIS: Attagene CIS-FACTORIAL HepG2 Assay for human Forkhead box O (FoxO) (AID 2282943). Particulars: HepG2 Attagene cis-reporter, FoxO element, mRNA; actives raise or lower the signal. The procedure, abridged: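 24 h chemical exposure, HepG2 with transient cis-MRTU transfection. RNA extraction, oligo(dT) RT, reporter-specific PCR, primer-extension labelling, HpaI digestion, CE fragment analysis; bidirectional fit, DMSO baseline.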

A short description of test [6]: ATG_GATA_CIS: Attagene CIS-FACTORIAL HepG2 Assay for human GATA Binding Protein (AID 2282944). Conditions: HepG2 GATA cis-element reporter, Attagene multiplex mRNA; actives raise or lower the signal. The essentials:
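DMSO serves as negative control and baseline for bidirectional fitting of reporter mRNA changes. HepG2 cells bearing transiently transfected cis-promoter reporters were exposed 24 h; transcripts detected via RT-PCR and capillary electrophoresis.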

Test [7] in a line: ATG_GLI_CIS: Attagene CIS-FACTORIAL HepG2 Assay for human Zinc Finger Protein GLI1 (AID 2282945). Particulars: HepG2, Attagene cis-factorial reporter mRNA, GLI element; actives raise or lower the signal. The essentials:
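HepG2 cells transiently transfected with cis-promoter multiplexed reporter units report endogenous transcription factor activity. After 24 h chemical exposure, reporter mRNA was quantified by RT-PCR, 6-FAM labelling, HpaI digestion and capillary electrophoresis, with bidirectional fitting against DMSO.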

Test [8] has as its target Bile acid receptor (Homo sapiens) (UniProt Q96RI1). The experiment in a line: ATG_IR1_CIS: Attagene CIS-FACTORIAL HepG2 Assay for human Nuclear Receptor Subfamily 1 Group H Member 4 (NR1H4), IR1 submotif (AID 2282946). Particulars: IR1 reporter transcription, actives raise or lower the signal. The essentials: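 Transient MRTU transfection, HepG2; 24 h dosing; RNA → RT-PCR → 6-FAM primer extension → HpaI digest → capillary electrophoresis fluorescence. Gain/loss of signal fitted relative to DMSO.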

Test [9] in a line: ATG_GRE_CIS: Attagene CIS-FACTORIAL HepG2 Assay for human Glucocorticoid Response Elements (GRE) (AID 2282947). Conditions: HepG2 GRE cis-reporter, Attagene multiplex mRNA; actives raise or lower the signal. The procedure, abridged:
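HepG2 cells transiently transfected with multiple cis-promoter reporter units measure endogenous TF activity; 24 h compound exposure. Reporter mRNA quantified by RT-PCR, FAM labelling, HpaI digestion and capillary electrophoresis; bidirectional fit vs DMSO baseline.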

A short description of test [10]: ATG_ISRE_CIS: Attagene CIS-FACTORIAL HepG2 Assay for human Interferon Regulatory Factor 1 (IRF1) binding to an Interferon-Stimulated Response Element (ISRE) (AID 2282948). Conditions: HepG2 ISRE cis-reporter (Attagene), mRNA transcription readout; actives raise or lower the signal. The procedure, abridged: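 Cell-based cis-reporter assay; HepG2; 24 h exposure; reporter mRNA by RT-PCR plus capillary electrophoresis fluorescence; activity in either direction scored relative to DMSO.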

The term AC50 denotes the concentration giving half of the maximal activity seen.

The structures appear in SMILES notation. The list shows a part of the results, in another mix than the full data. Activity calls are given as the source filed them. Rule for the calls: active = hit-call score of the fitted dose curve at least 0.9, where 1 is the maximum; inactive = score below 0.9.

Turning to `O=C(Cl)OCCOC(=O)Cl`, the result in test [1], in test [2], in [3], in test [4], in test [5] and in test [6] was inactive. For the same compound, the compound was called inactive in test [7], in [8], in test [9] and in test [10].
In the case of `O=[As]c1ccccc1` (stereo not drawn), the result in test [1], in [3] and in test [9] was inactive. Moreover, the AC50 in [4] is active: 412 nM; in test [5], active: 0.491 µM; in [6] it was active: 237 nM; in test [8] it was active: 0.333 µM.
On to `O=P(Cl)(Oc1ccccc1)Oc1ccccc1`, for which the compound was classed as inactive in test [1], in test [2], in [3], in test [4], in test [5] and in test [6]. In addition, the result in [7], in [9] and in test [10] was inactive.
`O=[P+](Oc1ccccc1)Oc1ccccc1`: the call in test [1], in test [2], in [3], in [4], in test [5] and in test [6] was inactive. Further, the result in [7], in test [9] and in test [10] was inactive.
In the case of `O=[p+]1oc2ccccc2c2ccccc21` (stereo not drawn), the result in [1], in [2], in test [3], in test [4], in test [5] and in test [6] was inactive. Also, the call in test [7], in [8], in test [9] and in [10] was inactive.
For the compound `CCCCOP(OCCCC)OCCCC`, the call in [1], in [2], in test [3], in test [4], in test [5] and in test [6] was inactive. For the same compound, the compound was called inactive in test [7], in test [8], in test [9] and in test [10].
For the compound `ClP(Cl)c1ccccc1`, the compound was called inactive in test [1], in [2], in test [3], in test [4], in test [5] and in [6]. The compound was classed as inactive in [7], in [9] and in test [10].
For the compound `CCCCO[P+](=O)OCCCC`, the compound was classed as inactive in test [1], in [2], in [3], in test [4], in [5] and in test [6]. Also, the call in [7] and in [10] was inactive.
Take `N#CSc1ccc([N+](=O)[O-])cc1[N+](=O)[O-]`: the call in [1], in test [2], in [3], in [4], in test [5] and in test [6] was inactive. Besides, the call in test [7], in test [9] and in test [10] was inactive.
In the case of `CN(C(=O)Cc1cccc2occc12)[C@H]1CC[C@@]2(CCCO2)C[C@@H]1N1CCCC1`, the outcome in test [1], in test [2], in [3], in test [4], in [5] and in test [6] was inactive. The result in test [7], in test [8], in test [9] and in test [10] was inactive.
Regarding `O=C1C2CC=CCC2C(=O)N1SC(Cl)(Cl)C(Cl)Cl` (stereo not drawn), the compound was classed as inactive in test [1], in [2], in test [3], in test [4], in test [5] and in [6]. For the same compound, the compound was called inactive in test [7], in [8], in test [9] and in [10].
For the compound `Cc1cc([N+](=O)[O-])cc([N+](=O)[O-])c1O`, the compound was classed as inactive in test [1], in test [2], in test [3], in [4], in [5] and in [6]. For the same compound, the call in test [7], in [8], in test [9] and in test [10] was inactive.
Regarding `O=[N+]([O-])c1ccc([N+](=O)[O-])cc1`, the result in test [1], in test [2], in [3], in [4], in [6] and in test [9] was inactive. Besides, the half-maximal activity concentration (AC50) in test [5] was active: 160 µM; in test [7], active: 61 µM; in test [8], active: 26.1 µM; in test [10], active: 23.7 µM.
On to `CC(C)OP(=S)(OC(C)C)SCCNS(=O)(=O)c1ccccc1`, for which the compound was called inactive in [1], in test [2], in test [3], in test [4], in test [5] and in [6]. For the same compound, the call in [7], in test [9] and in test [10] was inactive.
As to `CC(C)CCCCCCCOP(OCCCCCCCC(C)C)Oc1ccccc1`, the compound was called inactive in test [1], in [2], in [3], in test [4], in [5] and in [6]. Moreover, the call in test [7], in [9] and in [10] was inactive.
On to `O=C(Cl)Oc1ccccc1`, for which the compound was classed as inactive in test [1], in test [2], in test [4], in test [5], in test [6] and in test [7]. The result in test [8], in test [9] and in test [10] was inactive. Further, in [3], the AC50 was active: 84.5 nM.
`CCCCC(CC)CO[P+](=O)OCC(CC)CCCC` (stereo not drawn): the compound was called inactive in test [1], in test [2], in [3], in test [4], in test [5] and in test [6]. For the same compound, the call in [7], in [9] and in test [10] was inactive.

For the origin of these results see PubChem BioAssay (EPA / NIEHS).
